We go through 3 molecules from patent publication US11897886B2, “Pyrazolo[4,3-d]pyrimidines as antitumor agents” (Duquesne University of the Holy Spirit, priority 2018, dated 2024).

Sequences of proteins named here, by UniProt entry; tags and fusion partners are left off.
UniProt P81947, whole entry: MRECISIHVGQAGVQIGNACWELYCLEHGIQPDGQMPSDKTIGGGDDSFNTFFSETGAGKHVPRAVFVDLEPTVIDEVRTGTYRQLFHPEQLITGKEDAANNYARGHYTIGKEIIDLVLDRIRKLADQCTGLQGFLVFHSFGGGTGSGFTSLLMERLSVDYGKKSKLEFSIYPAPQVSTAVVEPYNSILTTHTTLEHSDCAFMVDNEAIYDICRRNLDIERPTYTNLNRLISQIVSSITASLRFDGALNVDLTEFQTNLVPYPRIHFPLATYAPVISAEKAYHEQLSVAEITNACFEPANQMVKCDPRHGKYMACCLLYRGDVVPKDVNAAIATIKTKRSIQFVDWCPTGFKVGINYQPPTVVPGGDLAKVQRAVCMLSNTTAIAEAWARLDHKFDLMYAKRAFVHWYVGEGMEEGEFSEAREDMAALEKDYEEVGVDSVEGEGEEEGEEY
UniProt Q6B856, whole entry: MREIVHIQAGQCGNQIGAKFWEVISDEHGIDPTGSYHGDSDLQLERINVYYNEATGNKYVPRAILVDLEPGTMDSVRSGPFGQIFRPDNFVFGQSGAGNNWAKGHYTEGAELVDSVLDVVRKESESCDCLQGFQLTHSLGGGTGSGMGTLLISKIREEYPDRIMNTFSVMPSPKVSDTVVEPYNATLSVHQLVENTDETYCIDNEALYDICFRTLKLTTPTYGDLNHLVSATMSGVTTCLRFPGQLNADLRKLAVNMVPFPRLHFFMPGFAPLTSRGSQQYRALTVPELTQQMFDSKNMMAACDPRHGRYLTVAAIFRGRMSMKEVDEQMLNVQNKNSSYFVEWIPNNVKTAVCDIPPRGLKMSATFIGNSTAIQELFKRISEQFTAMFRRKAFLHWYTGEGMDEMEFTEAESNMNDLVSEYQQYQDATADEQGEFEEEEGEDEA

In assay [1] the target is T1, tubulin (Bos taurus, UniProt P81947+Q6B856). Description: Inhibition of [3H]colchicine binding to tubulin. The settings on record: for Inhibition of colchicine binding 0.5 μM inhibitor % inhibition ± SD / Inhibition of colchicine binding 5 μM inhibitor % inhibition ± SD: Table 1.
Assay [2] relates to OVCAR-8. Description: Compound activity in OVCAR-8 cell line. Particulars: read-out: OVCAR-8 IC50 (nM) ± SD, Table 1. It counts as cell-based.
Assay [3] concerns NCI/ADR-RES. Description: Compound activity in a P-gp overexpressing cell line NCI/ADR-RES. It counts as cell-based. Particulars: read-out: NCl/ADR-RES IC50 (nM) ± SD, Table 1.
The target in assay [4] is T1, tubulin. Description: Inhibition of tubulin assembly. It counts as biochemical. Particulars: for IC50: read-out: Inhibition of tubulin assembly IC50 (μM ± SD), Table 1.
For assay [5], the system named is tumor cells. The settings on record: reported by Gangjee et al. 2012; cited from earlier work.

In the case of `COc1ccc(N(C)c2nc(Cl)nc3cc[nH]c23)cc1`, the “Inhibition of colchicine binding 0.5 μM inhibitor % inhibition ± SD” value in assay [1] is 80 ± 3%. The “Inhibition of colchicine binding 5 μM inhibitor % inhibition ± SD” value in assay [1] came out at 96 ± 0.5%. Besides, the IC50 turned out to be 28 nM in assay [2], 15 nM in assay [3] and 2.8 µM in assay [4]. Also, the “fold improved activity in inhibition of tubulin assembly” value in assay [4] (compared to lead known Compound 1) was determined as 3 fold.
As to `COc1ccc(N(C)c2nc(Cl)nc3ccn(C)c23)cc1`, the “Inhibition of colchicine binding 0.5 μM inhibitor % inhibition ± SD” value in assay [1] is 97 ± 2.0%. The “Inhibition of colchicine binding 5 μM inhibitor % inhibition ± SD” value in assay [1] amounted to 95 ± 0.4%. In addition, the results for the IC50 in assay [2], in assay [3] and in assay [4] were 2.5 nM, 1.3 nM and 1.1 µM, respectively.
Take `COc1ccc(N(C)c2nc(C)nc3cc[nH]c23)cc1`: the “inhibition of [3H]colchicine binding to tubulin” value in assay [1] (5 μM) is 95%. The “Inhibition of colchicine binding 0.5 μM inhibitor % inhibition ± SD” value in assay [1] worked out at 88 ± 0.7%. Also, the “Inhibition of colchicine binding 5 μM inhibitor % inhibition ± SD” value in assay [1] was 95 ± 0.8%. Further, the “GI50 values, growth of tumor cells” value in assay [5] is reported as “nanomolar range”. Further, the figures for the IC50 in assay [2], in assay [3] and in assay [4] were 1000 nM, 700 nM and 10 µM, respectively.
